Results on 1 molecule are retold here after patent US20170168056A1, “METHODS AND COMPOSITIONS FOR DETECTING AND MODULATING CANCER CELLS” (Massachusetts Institute of Technology, priority 2015, published 2017).

For one test, the system named is microtubules (MT). In words: MT length image analysis. The class given is cell-based, human. As to conditions: 231-Control or 231-MENA cells, 10 nM paclitaxel 24 hours.
Test [1] relates to MDA-MB-231 xenograft tumors. In words: Metastasis: bone marrow colonies and lung metastases in tumor-bearing mice. Type of test: in vivo, mouse. As to conditions: Mena^INV tumors (231-MENA or 231-MENA^INV), 12 weeks. From the text: Taxol treatment fails to reduce metastasis of Mena^INV-expressing xenografts. To investigate the consequences of Taxol treatment on metastasis, we counted the number of metastases in the lung and the number of colonies in cultured bone morrow from mice bearing Control, Mena or Mena^INV tumor for 12 weeks. The number of colonies in the bone marrow (FIG. 3A) or metastases in the lung (FIG. 3B) from Mena^INV tumors was not affected by treatment with Taxol. […] Thus taxol treatment fails to reduce the increased metastatic phenotype associated with Mena^INV expression.
Xenograft tumor generation and in vivo chemotherapy treatment. All animal experiments were approved by the MIT Division of Comparative Medicine. 2 million MDA-MB-231 cells expressing different MENA isoforms (in PBS and 20% collagen I) were injected into the 4th right mammary fat pad of six week-old female NOD-SCID mice (Taconic). […] One day after the last injection, tumors were measured and mice were use for intravital imaging and then sacrificed. […] The number of tumor cell colonies in cultured bone morrow was counted 1 month after collection. The number of metastasis in each lobe of the lung were counted from lung H&E stained sections visualized by light microscopy and counted by two blinded individuals. […]

Take `CC(=O)O[C@H]1C(=O)[C@@]2(C)[C@H]([C@H](OC(=O)c3ccccc3)[C@]3(O)C[C@H](OC(=O)[C@H](O)[C@@H](NC(=O)c4ccccc4)c4ccccc4)C(C)=C1C3(C)C)[C@]1(OC(C)=O)CO[C@@H]1C[C@@H]2O` [paclitaxel]: in the test on microtubules (MT), the MT length entry is recorded as “had no effect”. Besides, in test [1], the “number of colonies in cultured bone marrow” value was “Neither the number of bone marrow colonies” and the “number of metastases in the lung” value is “nor the number of lung metastases”.
